Test [1] deals with T1, Human Recombinant Glucocorticoid Receptor (Homo sapiens, UniProt P04150).
T1 construct: This GR was a full-length steroid hormone receptor likely to be associated with heat-shock and other endogenous proteins; host or cells: baculovirus-infected insect cells
T1 sequence (P04150 1-777): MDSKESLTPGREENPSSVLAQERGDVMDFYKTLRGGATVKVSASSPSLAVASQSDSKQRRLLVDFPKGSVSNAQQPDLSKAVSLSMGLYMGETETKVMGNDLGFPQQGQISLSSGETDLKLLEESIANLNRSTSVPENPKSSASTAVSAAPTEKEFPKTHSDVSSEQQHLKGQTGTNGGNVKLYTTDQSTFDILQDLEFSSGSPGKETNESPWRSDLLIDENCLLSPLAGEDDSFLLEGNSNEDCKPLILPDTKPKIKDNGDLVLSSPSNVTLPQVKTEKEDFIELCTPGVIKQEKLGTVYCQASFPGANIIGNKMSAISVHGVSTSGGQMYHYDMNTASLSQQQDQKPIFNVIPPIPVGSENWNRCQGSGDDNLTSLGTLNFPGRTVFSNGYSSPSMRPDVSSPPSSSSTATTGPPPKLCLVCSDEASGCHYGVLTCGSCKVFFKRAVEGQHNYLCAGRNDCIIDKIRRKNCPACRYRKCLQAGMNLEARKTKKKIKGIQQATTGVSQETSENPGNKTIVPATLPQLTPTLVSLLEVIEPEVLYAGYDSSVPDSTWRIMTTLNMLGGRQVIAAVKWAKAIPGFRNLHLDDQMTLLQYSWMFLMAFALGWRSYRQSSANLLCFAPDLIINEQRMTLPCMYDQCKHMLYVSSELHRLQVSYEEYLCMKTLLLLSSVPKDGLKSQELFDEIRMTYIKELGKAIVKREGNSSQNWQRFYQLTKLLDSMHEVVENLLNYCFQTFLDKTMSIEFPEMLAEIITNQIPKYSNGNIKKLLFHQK
Put plainly: Glucocorticoid receptor binding displacement assay with 3H-dexamethasone. To be noted: displacement of 2.5 nM 3H-dexamethasone; Ki from IC50 by Cheng-Prusoff; read-out: GR Binding Ki. The procedure:
Binding protocol: Compounds were tested in a binding displacement assay using human recombinant glucocorticoid receptor with ^3H-dexamethasone as the ligand. The source of the receptor was recombinant baculovirus-infected insect cells. This GR was a full-length steroid hormone receptor likely to be associated with heat-shock and other endogenous proteins.
For the Primary Screen, test compounds were tested at 1 μM in duplicate. These compounds were diluted from 10 mM stock in 100% DMSO. After dilution to 100 μM, 5 μl were added to 245 μl assay buffer to obtained 2 μM compound and 2% DMSO.
For the IC50 determinations, test compounds were tested at 6 concentrations in duplicate (concentration range depends on % inhibition binding that was obtained in the Primary Screen). Test compounds were diluted from 10 mM stock in 100% DMSO. The tested solutions were prepared at 2× final assay concentration in 2% DMSO/assay buffer.
All reagents and the assay plate were kept on ice during the addition of reagents. […]
After 2.5 hrs incubation, unbound counts were removed with dextran coated charcoal (DCC) as follows: 25 μl of DCC solution (10% DCC in assay buffer) was added to all wells and mixed (total volume 225 μl). […] The plate was vigorously shaken for approx. 10 minutes and counted on Topcount. […]

The target of test [2] is T2, glucocorticoid receptors (GR) in SW1353/MMTV-5 cells (Homo sapiens, UniProt P04150).
T2 construct: contains endogenous glucocorticoid receptors; endogenous in cells; host or cells: SW1353/MMTV-5 (human chondrosarcoma, stably transfected with the pMAMneo-Luc reporter only)
T2 sequence (P04150 1-777): T1 sequence (P04150 1-777)
The test can be described thus: GR functional assay using SW1353/MMTV-5 cells (MMTV-luciferase reporter). It is filed as cell-based. To be noted: inhibition of luciferase expression induced by 50 nM dexamethasone, 24 hrs. The procedure:
SW1353/MMTV-5 is an adherent human chondrosarcoma cell line that contains endogenous glucocorticoid receptors. It was transfected with a plasmid (pMAMneo-Luc) encoding firefly luciferase located behind a glucocorticoid-responsive element (GRE) derived from a viral promoter (long terminal repeat of mouse mammary tumor virus). A stable cell line SW1353/MMTV-5 was selected with geneticin, which was required to maintain this plasmid.
SW1353/MMTV-5 cells were distributed in 96-well plates and incubated in medium (without geneticin) for 24 hrs (in the absence of CO2).
In general terms: Reporter assays use an easily measured gene product as a stand-in for the process of interest.

Some results are limits rather than exact numbers.

In general, Ki refers to the equilibrium dissociation constant of an inhibitor or competing ligand from its target. As for “(R)-6-(6-Azetidin-1-yl-pyridine-3-sulfonyl)-1-(4-fluorophenyl)-4a-(oxazol-2-ylmethoxymethyl)-4,4a,5,6,7,8-hexahydro-1H-1,2,6-triazacyclopenta[b]naphthalene [Example 16]”, the Ki was greater than 1 nM in test [1] and 10 to 50 nM in test [2].
